Laboratory results taken from patent US9539321B2, “HMGB1-derived peptides enhance immune response to antigens” (The Regents of the University of California, priority 2010, dated 2017).

What was measured:
[1] = system: Immature human DCs; experiment: Peptide binding/uptake by flow cytometry; settings: 30 minutes pre-treatment; PAO 2 μM, CP 100 μM, NY 20 μM, AM 2 mM
[2] = system: J774 macrophages; experiment: Hp91-induced IL-6 secretion from macrophages after inhibitor pre-treatment; format: cell-based, mouse; settings: SB 20 μM, TPCK 20 μM, DYN 80 μM, PAO 2 μM, CP 100 μM, 24 h

In the case of O=[As]c1ccccc1 (centres unmarked), the “effect of inhibitor pre-treatment on uptake of biotinylated Hp91” value [1] is reported as “significantly reduced” and the “effect of inhibitor pre-treatment on Hp91-induced IL-6 secretion” value [2] is reported as “significant reduction”.
